## Ab-14 heavy chain CDR variants: yeast mating affinities

Data: MIT Lincoln Laboratory AlphaSeq set, Li et al. 2023, doi:10.1038/s41467-023-39022-2, as distributed in FLAb.

Antigen: PDVDLGDISGINAS, a 14-residue peptide of the SARS-CoV-2 spike HR2 region.

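The parent was found by panning a naive human phage display library on the peptide. This is the validation round: designs drawn from the data on random variants, tested in the same kind of assay. Their group label is 14H_En_Gen (En: ensemble of fine-tuned language models; Gen: genetic algorithm). In AlphaSeq, yeast of one mating type display the scFv and yeast of the other type display the target. After mating in shaken culture at 30 °C for 16 h, diploids were selected and their barcode pairs sequenced. Scores were corrected for input abundance and mapped to Kd with protein pairs of known affinity run in the same pool. Mating was done six times.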

Each scFv is VH, three GGGGS repeats, VL, as in the parent Ab-14, and differs from it in the CDRs of the heavy chain only.
VH: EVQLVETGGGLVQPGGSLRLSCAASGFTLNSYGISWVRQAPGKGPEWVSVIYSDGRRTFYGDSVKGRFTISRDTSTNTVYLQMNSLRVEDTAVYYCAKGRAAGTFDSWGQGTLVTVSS
VL: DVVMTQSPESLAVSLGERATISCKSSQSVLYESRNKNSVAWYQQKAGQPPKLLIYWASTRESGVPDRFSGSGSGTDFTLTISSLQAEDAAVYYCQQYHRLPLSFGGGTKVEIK

Each variant is given by its three heavy chain CDRs, as the data file delimits them; those of the parent are GFTLNSYGIS, VIYSDGRRTFYGDSVK, GRAAGTFDS.
Values are log10 of the apparent Kd in nM; lower means stronger binding.
"ND" marks a missing value. The strain was present, yet no cells mated with the target were sequenced in that replicate, which points to weak or no binding.
Background: pairings of all heavy chain designs with three empty control strains gave a value in 1% of cases (median 2.08, 5th percentile 0.84). Values in that range, when seen in few replicates, are hard to tell from nonspecific mating. Also given: how often the same scFv was detected with the empty control strains, with their mean in brackets.
The range of this assay differs from that of the first round, and the authors advise against merging the two.
Of ten entries with the parent sequence, four were seen in most replicates (averages 0.34 to 2.37), three in one and three in none, so single entries are noisy.
The authors' rule: three or more of the six replicates give a measured affinity, fewer mean a poor binder.

| CDR-H1 | CDR-H2 | CDR-H3 | replicates, log10 nM | signal with controls |
|---|---|---|---|---|
| GFDLNEYGIS | VIYADGVRTAYADSVK | GNNAGTFDM | -0.09 -0.09 -0.10 0.11 0.08 0.06 | 0/18 |
| GFDLNEYGIS | VIYADGMRTAYVDSVK | GNEAGTFDV | ND -0.15 -0.54 0.70 -1.03 -0.80 | 0/18 |
| GFDLNEYGIS | VIYADGQRTYYADSVK | GNQAGTFDV | -0.10 -0.38 -0.59 -0.54 -0.64 -0.44 | 1/18 (2.29) |
| GFDLDEYGIS | VIYADGMRTAYADSVK | GNVAGTFDA | -0.17 -0.07 -0.33 -0.50 -0.03 -0.33 | 0/18 |
| GFDLNEYGIS | VIYADGVRTAYADSVK | GKNAGTFDI | -0.14 -0.52 -0.47 -0.85 -0.84 -0.18 | 0/18 |
| GFDLNEYGIS | VIYADGRRTAYADSVK | GSNAGTFDM | 0.12 -0.05 -0.24 -0.21 -0.41 -0.02 | 0/18 |
| GFDLDEYGIS | VIYADGRRTAYADDVK | GNVAGTFDV | 0.19 0.76 0.11 0.55 0.56 0.44 | 1/18 (2.64) |
| GFDLNEYGIS | VIYADGMRKVYADSVK | GNVAGTFDV | -0.53 -0.81 -0.49 -0.64 -0.41 -0.58 | 0/18 |
| GFDLNEYGIS | VIYADGMRTYYADDVK | GNTAGTFDI | -0.47 -0.78 -0.68 -0.85 -0.67 -0.77 | 0/18 |
| GFDLNEYGIS | VIYADGKRTVYADSVK | GQNAGTFDV | -0.33 -0.20 -0.29 -0.28 -0.41 -0.12 | 1/18 (4.08) |
| GFDLNEYGIS | VIYADGMRTAYADDVK | GSNAGTFDT | -0.53 -0.74 -0.73 -1.02 -0.60 -0.50 | 0/18 |
| GFDLNEYGIS | VIYADGVRTFYADSVK | GENAGTFDM | -0.07 -0.03 -0.27 0.06 -0.49 -0.21 | 0/18 |
| GFDLDEYGIS | VIYADGRRTAYSDSVK | GNNAGTFDV | -0.43 -0.68 -0.90 -0.66 -0.68 -0.51 | 0/18 |
| GFDLNEYGIS | VIYADGMRTFYADNVK | GQVAGTFDV | 0.13 0.14 0.22 0.36 0.06 0.49 | 1/18 (1.51) |
| GFDLDEYGIS | VIYADGMRTAYSDSVK | GTNAGTFDV | 0.57 0.41 0.21 -0.08 -0.39 0.21 | 0/18 |
| GFDLEEYGIS | VIYADGKRTAYADSVK | GQNAGTFDV | 0.06 -0.06 0.41 -0.10 -0.12 0.01 | 2/18 (1.63) |
| GFDLNEYGIS | VIYADGSRTAYIDSVK | GNNAGTFDV | -0.01 0.32 -0.35 -0.52 -0.12 0.18 | 0/18 |
| GFDLNEYGIS | VIYADGMRQAYADSVK | GNNAGTFDI | 0.50 0.77 0.58 0.77 0.92 0.62 | 0/18 |
| GFDLNEYGIS | VIYADGVRTAYSDSVK | GTNAGTFDQ | 0.14 -0.20 -0.20 -0.15 -0.12 -0.25 | 2/18 (3.03) |
| GFDLNEYGIS | VIYADGRRTAYADSVK | GKVAGTFDV | -0.44 -0.52 -0.63 -0.75 -0.62 -0.33 | 0/18 |
| GFDLNEYGIS | VIYADGVRTSYADSVK | GEVAGTFDQ | -0.20 -0.15 -0.21 -0.20 0.45 0.15 | 1/18 (2.25) |
| GFDLNEYGIS | VIYADGVRTAYADSVK | GNVAGTFDK | -0.38 -0.91 -0.68 -0.94 -0.82 -0.63 | 0/18 |
| GFDLNEYGIS | VIYADGMRTAYADDVK | GTNAGTFDQ | -0.17 -0.29 -0.69 -0.53 -0.62 -0.38 | 0/18 |
| GFDLNEYGIS | VIYADGKRTYYADSVK | GNEAGTFDV | -0.18 -0.08 -0.30 -0.44 -0.47 -0.16 | 0/18 |
| GFDLNEYGIS | VIYADGMRTAYADDVK | GNNAGTFDV | -0.55 -0.54 -0.52 -0.53 -0.39 -0.42 | 0/18 |
| GFDLNEYGIS | VIYADGSRTAYIDSVK | GQNAGTFDV | 0.84 0.95 1.01 1.13 0.13 0.66 | 0/18 |
| GFDLDEYGIS | VIYADGQRTAYSDSVK | GNNAGTFDV | -0.17 -0.53 -0.66 -0.75 -0.74 -0.43 | 0/18 |
| GFDLNEYGIS | VIYADGVRTAYTDSVK | GENAGTFDQ | 0.40 0.26 0.57 0.11 -0.19 0.07 | 1/18 (1.26) |
| GFDLDEYGIS | VIYADGQRTAYADSVK | GENAGTFDT | -0.19 -0.32 -0.10 -0.21 -0.29 -0.09 | 0/18 |
| GFDLNEYGIS | VIYADGVRTAYADDVK | GTNAGTFDL | -0.02 0.25 -0.26 -0.46 -0.05 -0.06 | 1/18 (3.58) |
| GFDLDEYGIS | VIYADGVRTAYADSVK | GETAGTFDI | -0.25 -0.02 -0.43 -0.10 -0.32 -0.17 | 1/18 (3.08) |
| GFNLDEYGIS | VIYADGMRTAYADSVK | GQNAGTFDV | -0.45 -0.22 -0.41 -0.43 -0.37 -0.19 | 0/18 |
| GFDLNEYGIS | VIYADGKRTAYSDSVK | GNEAGTFDL | -0.09 -0.06 -0.27 -0.30 -0.10 -0.08 | 1/18 (2.95) |
| GFDLDEYGIS | VIYADGRRTAYADSVK | GQNAGTFDT | ND ND ND ND ND ND | 0/18 |
| GFDLNEYGIS | VIYADGMRTAYADSVK | GNNAGTFDM | -0.57 -0.40 -0.97 -1.05 -0.75 -1.15 | 0/18 |
| GFDLNEYGIS | VIYADGQRKAYADSVK | GNVAGTFDL | 1.71 0.01 0.86 0.58 0.58 1.39 | 0/18 |
| GFDLNEYGIS | VIYADGKRTAYADNVK | GENAGTFDI | -0.45 0.03 -0.36 -0.54 0.13 -0.63 | 0/18 |
| GFDLNEYGIS | VIYADGRRTAYADSVK | GVNAGTFDV | -0.17 -0.20 -0.16 -0.28 -0.31 -0.21 | 0/18 |
| GFDLDEYGIS | VIYADGMRKAYADSVK | GNVAGTFDV | -0.23 -0.75 -0.66 -0.55 -0.76 -0.35 | 0/18 |
| GFDLDEYGIS | VIYADGKRTAYADSVK | GNLAGTFDV | -0.46 -0.71 -0.39 -0.55 -0.69 -0.13 | 0/18 |
| GFDLNEYGIS | VIYADGKRTAYADNVK | GNQAGTFDV | -0.22 0.10 0.11 -0.32 -0.02 0.27 | 0/18 |
| GFDLNEYGIS | VIYADGVRTVYADSVK | GGNAGTFDV | -0.14 0.11 0.03 -0.11 0.08 0.10 | 1/18 (1.43) |
| GFDLNEYGIS | VIYADGMRTAYTDSVK | GNVAGTFDI | -0.49 -1.38 ND -1.74 -1.11 -0.99 | 0/18 |
| GFDLNEYGIS | VIYADGRRTAYADSVK | GGVAGTFDV | 1.74 ND ND ND ND ND | 0/18 |
| GFDLNEYGIS | VIYADGRRTAYSDSVK | GNVAGTFDM | 0.38 0.12 -0.31 -0.10 -0.13 0.31 | 0/18 |
| GFDLDEYGIS | VIYADGMRTFYTDSVK | GENAGTFDV | 0.42 -0.32 -0.17 -0.48 -0.15 0.23 | 0/18 |
| GFDLNEYGIS | VIYADGKRTAYSDSVK | GNEAGTFDV | -0.25 0.62 -0.22 0.19 0.01 -0.58 | 0/18 |
| GFDLNEYGIS | VIYADGVRTAYADNVK | GQVAGTFDV | -0.39 -0.37 -0.41 -0.52 -0.54 -0.07 | 0/18 |

A selection of 4 entries from above:

| CDR-H1 | CDR-H2 | CDR-H3 | replicates, log10 nM | signal with controls |
|---|---|---|---|---|
| GFDLEEYGIS | VIYADGKRTAYADSVK | GQNAGTFDV | 0.06 -0.06 0.41 -0.10 -0.12 0.01 | 2/18 (1.63) |
| GFDLNEYGIS | VIYADGKRTAYSDSVK | GNEAGTFDL | -0.09 -0.06 -0.27 -0.30 -0.10 -0.08 | 1/18 (2.95) |
| GFDLNEYGIS | VIYADGMRTAYTDSVK | GNVAGTFDI | -0.49 -1.38 ND -1.74 -1.11 -0.99 | 0/18 |
| GFDLNEYGIS | VIYADGMRTAYADSVK | GNNAGTFDM | -0.57 -0.40 -0.97 -1.05 -0.75 -1.15 | 0/18 |